# From patent US20080045564A1 (priority 2006, published 2008)
# Chains of the proteins cited; added tags and fusions are not shown. Lines headed by an entry give the natural chain unless they say otherwise; changes in a name come on top.
# UniProt P05181: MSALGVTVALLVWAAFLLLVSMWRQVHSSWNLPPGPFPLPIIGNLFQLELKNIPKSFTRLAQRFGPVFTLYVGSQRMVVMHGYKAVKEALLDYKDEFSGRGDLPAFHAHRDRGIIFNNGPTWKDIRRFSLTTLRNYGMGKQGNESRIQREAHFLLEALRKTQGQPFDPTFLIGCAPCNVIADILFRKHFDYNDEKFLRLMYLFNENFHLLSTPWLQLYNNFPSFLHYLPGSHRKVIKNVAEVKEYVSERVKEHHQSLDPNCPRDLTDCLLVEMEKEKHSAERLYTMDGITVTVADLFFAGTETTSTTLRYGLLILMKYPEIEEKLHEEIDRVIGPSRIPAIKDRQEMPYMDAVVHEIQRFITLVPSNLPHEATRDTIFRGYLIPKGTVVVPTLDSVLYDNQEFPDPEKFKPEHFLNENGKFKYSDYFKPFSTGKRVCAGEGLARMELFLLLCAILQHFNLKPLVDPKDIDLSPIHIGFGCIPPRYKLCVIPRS
# UniProt P33261, whole entry: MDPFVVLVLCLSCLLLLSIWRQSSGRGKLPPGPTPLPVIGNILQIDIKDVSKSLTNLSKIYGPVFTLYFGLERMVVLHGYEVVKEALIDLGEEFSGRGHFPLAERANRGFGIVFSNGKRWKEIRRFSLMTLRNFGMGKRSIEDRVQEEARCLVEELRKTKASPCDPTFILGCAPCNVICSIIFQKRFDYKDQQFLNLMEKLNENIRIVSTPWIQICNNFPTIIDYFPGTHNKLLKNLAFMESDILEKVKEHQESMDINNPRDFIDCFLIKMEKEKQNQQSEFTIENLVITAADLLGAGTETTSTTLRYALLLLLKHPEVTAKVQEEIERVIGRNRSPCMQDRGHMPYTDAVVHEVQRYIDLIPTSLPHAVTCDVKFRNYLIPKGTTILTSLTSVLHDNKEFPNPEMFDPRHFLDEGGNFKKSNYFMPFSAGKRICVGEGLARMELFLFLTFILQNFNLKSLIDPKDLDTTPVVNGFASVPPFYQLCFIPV
# What was measured:
# recombinant human CYP2E1 = recombinant human CYP2E1 (Homo sapiens, UniProt P05181); settings: 30 min
# human CYP1A2 = settings: due to increased mRNA expression levels; Bapiro et al.; cited from earlier work
# [1] = target: recombinant human CYP2C19 (Homo sapiens, UniProt P33261); settings: read-out: KM for 3-hydroxylation of quinine by CYP2C19; recombinant human CYP2C19 in human B lymphoblastoid cells; ± s.d.; Zhao et al.; cited from earlier work
compound,measurement,setting,value
"C=C[C@H]1C[N@@]2CC[C@H]1C[C@H]2[C@H](O)c1ccnc2ccc(OC)cc12 [quinine, cinchonan-9-ol, 6′-methoxy-, (8a,9R)-]",Substrate,recombinant human CYP2E1,0
same,induction of human CYP1A2 activity,human CYP1A2,induced
same,Km,[1],46.3 ± 7.8 µM
